Measurements taken from patent publication US6420413B2, “Heterocycloalkylbenzocyclobutane and heteroarylbenzocyclobutane compounds” (Les Laboratories Servier, priority 2000, dated 2002).

The chains behind the UniProt entries cited, without tags or fusion partners. Residues count along the entry.
UniProt Q63380, 1-617: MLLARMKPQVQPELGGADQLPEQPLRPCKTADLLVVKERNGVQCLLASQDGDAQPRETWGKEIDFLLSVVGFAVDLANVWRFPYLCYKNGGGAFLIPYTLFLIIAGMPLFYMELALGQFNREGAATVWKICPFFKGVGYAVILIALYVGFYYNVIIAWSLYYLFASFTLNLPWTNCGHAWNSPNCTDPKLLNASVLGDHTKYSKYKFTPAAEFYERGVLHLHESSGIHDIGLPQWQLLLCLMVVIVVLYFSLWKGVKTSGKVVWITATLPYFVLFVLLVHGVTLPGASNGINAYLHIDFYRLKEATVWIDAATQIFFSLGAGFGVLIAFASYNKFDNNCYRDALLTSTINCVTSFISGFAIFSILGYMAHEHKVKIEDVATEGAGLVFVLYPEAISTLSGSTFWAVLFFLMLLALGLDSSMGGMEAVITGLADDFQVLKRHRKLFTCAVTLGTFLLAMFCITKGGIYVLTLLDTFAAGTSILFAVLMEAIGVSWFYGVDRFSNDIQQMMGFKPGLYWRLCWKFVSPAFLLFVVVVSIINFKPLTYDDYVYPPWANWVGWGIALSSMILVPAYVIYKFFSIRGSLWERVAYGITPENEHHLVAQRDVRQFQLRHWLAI
UniProt P31652, whole entry: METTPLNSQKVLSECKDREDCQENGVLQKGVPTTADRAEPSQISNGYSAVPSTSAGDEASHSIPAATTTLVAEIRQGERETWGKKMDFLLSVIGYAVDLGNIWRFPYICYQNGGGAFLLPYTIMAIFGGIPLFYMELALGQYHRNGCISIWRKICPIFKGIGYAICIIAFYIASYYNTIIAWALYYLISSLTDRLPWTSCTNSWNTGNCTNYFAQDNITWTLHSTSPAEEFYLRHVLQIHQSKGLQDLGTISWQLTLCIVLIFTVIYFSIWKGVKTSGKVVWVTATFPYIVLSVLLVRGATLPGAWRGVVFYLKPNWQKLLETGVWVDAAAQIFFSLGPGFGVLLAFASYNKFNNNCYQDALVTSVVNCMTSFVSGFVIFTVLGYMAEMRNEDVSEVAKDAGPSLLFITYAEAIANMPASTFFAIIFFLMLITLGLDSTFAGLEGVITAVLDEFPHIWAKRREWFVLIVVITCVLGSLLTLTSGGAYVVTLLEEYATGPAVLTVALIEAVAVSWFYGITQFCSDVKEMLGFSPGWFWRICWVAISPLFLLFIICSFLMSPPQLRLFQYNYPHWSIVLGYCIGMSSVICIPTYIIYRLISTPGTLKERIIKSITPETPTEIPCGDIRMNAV

Legend:
[1] = molecular target: T1, noradrenalin reuptake sites (Rattus norvegicus, UniProt Q63380); assay: Determination of the affinity for noradrenalin reuptake sites ([3H]-nisoxetine competition); format: binding; settings: used in the Cheng-Prusoff equation; read-out: dissociation constant (Kd) of the radioligand for the noradrenalin reuptake site
T1 construct: The membranes are prepared from rat frontal cortex; from tissue; host or cells: rat frontal cortex membranes
Protocol: The radioactivity retained on the filters is determined by liquid scintillation counting. The binding isotherms are analysed by non-linear regression to determine the IC50 values. Those values are converted into a dissociation constant (Ki) using the Cheng-Prusoff equation: […]

serotonin reuptake sites = serotonin reuptake sites (Rattus norvegicus, UniProt P31652); settings: read-out: dissociation constant (Kd) of the radioligand for the serotonin reuptake site; used in the Cheng-Prusoff equation
Protocol: The incubation buffer contains […] TRIS-HCl (pH 7.4), 120 mM NaCl and 5 mM KCl. Non-specific binding is determined using 10 μM citalopram. At the end of the incubation, the incubation medium is filtered and washed three times with 5 ml of cooled buffer. The radioactivity retained on the filters is determined by liquid scintillation counting. The binding isotherms are analysed by non-linear regression to determine the IC50 values. Those values are converted into a dissociation constant (Ki) using the Cheng-Prusoff equation: […]

Kd [1] | Compound | Kd (serotonin reuptake sites)
1.23 nM | CNCCC(Oc1ccccc1OC)c1ccccc1 (centres unmarked) [[^3H]-nisoxetine] | 
 | [^3H]-paroxetine | 0.13 nM
